Assay outcomes as filed in PubChem BioAssay.
Compounds with a hit are over-represented: about 1.7% of the library has one in this group of screens.
GLP1R ag: GLP-1 receptor (human) agonism; P43220; actives 0.007% (n = 380,000); AID 624172; HEK293 GLP-1R CRE-luciferase, luminescence, 4-6 h; cells express a hypersensitive GLP-1R form; Potency, µM (highest dose often 45.6 µM), actives largely listed as activators
GLP1R cytotox: cytotoxicity in counter-screen for GLP-1R inverse agonists. HEK293 cAMP-luciferase reporter cells, luminescence, 24 h. actives 0.13% (n = 410,000). Potency, µM (titrated, usually from 38.3 µM), most hits filed as inhibitors;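 further: loss of luciferase light is scored as toxicity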
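Luminescence readout: signal drop marks cytotoxicity. Plated cells grew 12 h at 37 °C, 5% CO2, received 23 nL compound for 24 h, then got luciferase reagent, read after 12 min at RT.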
miR-21 reporter: miR-21 reporter, rising signal; Potency, µM (top dose mostly 38.3 µM); 340,000 tested, under 10 active; HeLa miR-21 FLuc reporter, luciferase, 48 h; active = well fitted rising curve with a large enough effect; inconclusive = small, poorly fitted or top-dose-only effect; inactive = no such curve, though single readings can be large or run the other way;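 note: miR-21 action dims this reporter so a rising signal means less miR-21 action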
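Luminescence from a firefly luciferase reporter carrying a miR-21 binding site downstream, stably expressed under a CMV promoter in HeLa cells that make miR-21 endogenously, reports miRNA modulation after 48 h compound exposure up to approximately 40uM final.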
GLP-1R inv ag: acts as inverse agonist at human GLP-1 receptor; P43220; HEK293 GLP-1R CRE-luciferase, luminescence, 24 h; GLP-1R form is constitutively active; Potency, µM (highest dose often 38.3 µM), usual class: inhibitors; actives 1.6% (n = 410,000); AID 624417; further: nearly all actives have a fitted effect of over 55% in size
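HEK293 cells stably co-expressing a cAMP-responsive luciferase reporter and constitutively active GLP-1R were seeded, incubated 12 h, then exposed to compounds for 24 h at 37 C. Luminescence was read 12 min after detection reagent; inverse agonists lower signal.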
PTHR1 agonist: agonists of human PTHR1 parathyroid hormone receptor. HEK293 GP2 PTHR1 cells, GloSensor cAMP luminescence, 1 h. Potency, µM (titrated, usually from 115 µM), hits mostly activators. actives 0.075% (n = 410,000). AID 743266; further: nearly all actives have a fitted effect of over 55% in size
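HEK-293-derived GP2 cells expressing PTHR1 and a GloSensor cAMP reporter, 3,000/well, plated overnight, given luciferin plus IBMX (each 0.5 mM as added) for 1 h at 37 °C, then compound for 1 h at 37 °C. Luminescence was read after 15 min at room temperature.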
Pin1 inh: human Pin1 inhibition; Potency, µM (doses to about 115 µM), hits mostly inhibitors; Q13526; Pin1 FP peptide displacement, HiFluor488, 10 min; actives 0.009% (n = 390,000); active means well fitted inhibition curve with a large enough effect in the polarisation, with a control signal flat, not every such curve was filed as active; inconclusive means small, poorly fitted or top-dose-only effect, or effect the other way, or a change in a side signal; inactive means no such curve, though single readings can be large or run the other way; the % refers to the polarisation
Of the large screens only hits and unclear results are named; the others gave an inactive call. Unless noted, the call rests on the fitted dose curve; in most records, active means well fitted curve in the direction sought with a large enough effect; inconclusive means small, poorly fitted or top-dose-only effect, or another doubt; inactive means no such curve, though single readings can be large; an effect the other way counts as inactive or inconclusive.

CCOc1ccccc1CNC(=O)C1CCN(C(=O)N2CC(CC)Oc3ccc(C)cc32)CC1 (stereo not given)	GLP-1R inv ag inconclusive (no result: GLP1R ag)
COc1ccccc1C1CC(c2ccccc2)=NN1C(=O)c1ccccc1 (stereo not given)	GLP1R cytotox inconclusive, GLP-1R inv ag 8.9µM
COc1ccccc1OCCn1cc(C(=O)c2ccco2)c2ccccc21	miR-21 reporter inconclusive, GLP-1R inv ag 13µM
Cc1ccc(NC(=O)C(c2ccccc2)N2Cc3ccccc3C2=O)cc1Cl (stereo not given)	none (no result: GLP1R ag)
Cc1ccc(NC(=O)[C@@H](c2ccccc2)N2Cc3ccccc3C2=O)cc1F	GLP-1R inv ag 10µM
NN=C1c2cc(S(=O)(=O)NCCO)ccc2-c2ccc(S(=O)(=O)NCCO)cc21	none (no result: GLP1R ag, GLP1R cytotox, miR-21 reporter, GLP-1R inv ag, PTHR1 agonist)
CN(C)c1ccc(CNC(=O)CCNS(=O)(=O)c2cc(Br)cnc2N)cc1	GLP-1R inv ag 4.5µM
S=C(Nc1ccccn1)c1ccccn1	GLP1R cytotox 1µM, GLP-1R inv ag 0.89µM
S=C(Nc1ccccn1)Nc1ccccc1Cl	GLP1R cytotox 6.3µM, GLP-1R inv ag inconclusive
CN(C)c1cccc(-c2cnc(N3CCC(c4ncc[nH]4)CC3)s2)c1	none (no result: GLP1R ag, GLP1R cytotox, miR-21 reporter, GLP-1R inv ag, PTHR1 agonist)
CCc1ccc(OCc2ccc(C(=O)O)o2)cc1	GLP-1R inv ag 4µM
O=C(O)c1ccc(OCc2ccc(C(=O)O)o2)cc1	none
Cc1cc2c(s1)c1cnn(Cc3ccc(F)c(F)c3F)c(=O)c1n2C	none (no result: GLP1R ag, GLP1R cytotox, miR-21 reporter, GLP-1R inv ag, PTHR1 agonist)
CS(=O)(=O)N(CC(=O)NCCSCc1ccccc1)c1cc(C(F)(F)F)ccc1Cl	miR-21 reporter inconclusive, GLP-1R inv ag 11µM (no result: GLP1R ag)
COc1ccc(-c2[nH]ncc2/C=C(/C#N)C(=O)NC2CCCCC2)cc1	GLP-1R inv ag inconclusive
Cc1ccc(-c2[nH]ncc2/C=C(\C#N)C(=O)NC2CCCCC2)cc1	GLP-1R inv ag 7.9µM
COCCCNC(=O)C1CCCN(c2nn3cc(-c4ccc(C)cc4)nc3s2)C1 (stereo not given)	miR-21 reporter inconclusive (no result: GLP1R ag)
CCS(=O)(=O)Nc1ccc(-c2cc(-c3ccccc3)c3cc(C)ccc3n2)cc1	GLP-1R inv ag 7.1µM
Cc1cc2c(s1)c1cnn(Cc3ccc(C(C)C)cc3)c(=O)c1n2C	none (no result: GLP1R ag, GLP1R cytotox, miR-21 reporter, GLP-1R inv ag, PTHR1 agonist)
COc1cc(F)c(S(=O)(=O)N2CCN(S(=O)(=O)c3cccc(N)c3)CC2)c(F)c1	none (no result: GLP1R ag, GLP1R cytotox, miR-21 reporter, GLP-1R inv ag, PTHR1 agonist)
O=C(Nc1ccc(Cl)cc1)/C(=C/c1cccc(O)c1)c1nc2ccccc2s1	miR-21 reporter inconclusive, GLP-1R inv ag 2.8µM
S=C(Nc1ccc(Cl)cc1)c1nc2ccccc2s1	none
COc1ccccc1NC(=O)N(Cc1ccco1)Cc1cc2cccc(C)c2[nH]c1=O	GLP-1R inv ag 11µM
CCN(CC)CCN(Cc1cc2cc(C)ccc2[nH]c1=O)C(=O)Nc1ccccc1OC	GLP1R cytotox inconclusive, GLP-1R inv ag 13µM
CCc1ccc2[nH]c(=O)c(CN(Cc3ccccc3OC)C(=O)Nc3ccccc3OC)cc2c1	none
Cc1cc2cc(CN(CCN(C)C)C(=S)NCc3ccco3)c(=O)[nH]c2cc1C	GLP-1R inv ag inconclusive
CCN(CC)CCN(Cc1cc2cc(C)c(C)cc2[nH]c1=O)C(=S)NCc1ccco1	GLP1R cytotox inconclusive, GLP-1R inv ag 10µM
COc1cccc(NC(=O)c2csc3c2CCCCC3)c1	GLP-1R inv ag inconclusive (no result: GLP1R ag)
O=C1CCCc2cc(S(=O)(=O)NCC3CCC(C(=O)Nc4ccc(Cl)cc4)CC3)ccc2N1 (stereo not given)	none (no result: GLP1R ag)
O=C(O)c1ccccc1-c1ccccc1C(=O)NNc1ccccc1	GLP-1R inv ag 2.2µM
O=C(O)c1ccccc1-c1ccccc1C(=O)Nc1ccccc1	none
Cc1ccc(-c2nc3cc(C)c(Br)c(C)n3c2Cc2cccc(Cl)c2)cc1	none (no result: miR-21 reporter, Pin1 inh)
Cc1ccc(Cc2c(-c3cccc(Cl)c3)nc3cc(C)c(Br)c(C)n23)cc1	GLP-1R inv ag 3.2µM (no result: miR-21 reporter, Pin1 inh)
O=C(c1ccccc1)c1c[nH]c(C(=O)NNc2ccccc2)c1	GLP-1R inv ag 2.5µM
CC(SC1=NS(=O)(=O)c2ccccc21)C(=O)O (stereo not given)	none (no result: GLP1R ag, GLP1R cytotox, miR-21 reporter, GLP-1R inv ag, PTHR1 agonist)
